# Measured values published in publication PMC4821887, “Identification of chemicals that mimic transcriptional changes associated with autism, brain aging and neurodegeneration” (Nature Communications, 2016).
# System: mouse cortical neuron cultures
smiles,measurement,value
CCCSP(=O)(OCC)SCCC [Ethoprop],% Dead cells (vehicle subtracted),0.4679%
